Data reported in PMC12667481, “APOL2 Stabilizes Ku80 to Confer NHEJ‐Mediated Radioresistance in Gastric Cancer” (Advanced Science, 2025).

Target: T1, Flag-Ku80 (UniProt P13010 1-732)
T1 construct: Ku80 (XRCC5); The origin of the Flag-Ku80 plasmid is not described in the plasmid section; also called XRCC5; source: HEK293T, transfected, in lysate (co-IP); HEK293T, transfected, purified on anti-Flag agarose and eluted with 3xFLAG peptide (pull-down)
Assay: pull-down; purified GST or GST-APOL2 (5 µg) incubated overnight at 4 °C with Flag-Ku80 or Flag-Ku70 eluted from anti-Flag agarose; glutathione agarose in PBS with protease inhibitors for 2 h; washed three times with PBS; Western blot
Details: both partners purified

B1: GST-APOL2 (natural protein, UniProt Q9BQE5 1-337, looked up)
chain: MNPESSIFIEDYLKYFQDQVSRENLLQLLTDDEAWNGFVAAAELPRDEADELRKALNKLASHMVMKDKNRHDKDQQHRQWFLKEFPRLKRELEDHIRKLRALAEEVEQVHRGTTIANVVSNSVGTTSGILTLLGLGLAPFTEGISFVLLDTGMGLGAAAAVAGITCSVVELVNKLRARAQARNLDQSGTNVAKVMKEFVGGNTPNVLTLVDNWYQVTQGIGRNIRAIRRARANPQLGAYAPPPHVIGRISAEGGEQVERVVEGPAQAMSRGTMIVGAATGGILLLLDVVSLAYESKHLLEGAKSESAEELKKRAQELEGKLNFLTKIHEMLQPGQDQ
notes: Apolipoprotein L2 (APOL2)
binding result: binds
